Source: patent publication US8962630B2, “Pyrrolopyrimidine compounds and their uses” (Novartis AG, priority 2008, dated 2015)

The chains behind the UniProt entries cited, without tags or fusion partners.
UniProt P06493, whole entry, species assumed: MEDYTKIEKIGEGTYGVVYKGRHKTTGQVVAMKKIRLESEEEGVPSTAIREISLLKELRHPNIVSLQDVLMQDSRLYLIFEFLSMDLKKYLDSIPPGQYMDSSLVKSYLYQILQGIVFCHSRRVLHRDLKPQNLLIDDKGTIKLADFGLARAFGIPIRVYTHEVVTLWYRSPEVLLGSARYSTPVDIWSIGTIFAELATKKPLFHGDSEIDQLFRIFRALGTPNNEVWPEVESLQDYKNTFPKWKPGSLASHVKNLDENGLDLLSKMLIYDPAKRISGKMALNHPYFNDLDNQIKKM

Assays:
CDK1/cyclin B = CDK1/cyclin B (Homo sapiens (Human), UniProt P06493); test: CDK1/Cyclin B enzymatic activity assay (IMAP-FP); format: biochemical; conditions: Table 2; 20 μM ATP
From the text: A 384-well microtiter IMAP-FPT™ (Molecular Devices Trade Mark Technology) endpoint assay was used for CDK1/cyclin B kinase activity measurements. The same assay was used for IC50 determination of small molecule inhibitors.

CDK2/cyclin A = CDK2/cyclin A (Homo sapiens (Human), UniProt P24941); test: CDK2/Cyclin A enzymatic activity assay (IMAP-FP); format: biochemical; conditions: Table 2

## CN(C)C(=O)c1cc2cnc(Nc3ccc(CN4CC5CCC(C4)N5)cn3)nc2n1C1CCCC1 [Example 73, 7-Cyclopentyl-2-[5-(3,8-diaza-bicyclo[3.2.1]oct-3-ylmethyl)-pyridin-2-ylamino]-7H-pyrrolo[2,3-d]pyrimidine-6-carboxylic acid dimethylamide]
CDK1/cyclin B
  IC50: > 15 µM
CDK2/cyclin A
  IC50: > 15 µM
